Results as given in article PMC8171320, “Modification of amyloid-beta peptide aggregation via photoactivation of strained Ru(II) polypyridyl complexes” (Chemical Science, 2021).

By UniProt entry, the sequences of proteins in these tests, tags left out. Residues count along the entry.
UniProt P05067, 672-713: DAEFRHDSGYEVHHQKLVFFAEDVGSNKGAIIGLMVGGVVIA

Target: T1, amyloid-beta peptide (Aβ1–42 fibrils) (Homo sapiens, UniProt P05067)
T1 construct: gene APP; Aβ1–42, pre-formed fibrils
Experiment: Tyr10 intrinsic fluorescence titration, single-site binding model (positive control)

SMILES: Cc1ccc2c(c1)sc(-c1ccc(N(C)C)cc1)[n+]2C [ThT, thioflavin T]
- Kd: 9.8 ± 1.4 µM
